In US8440641B2, “Phthalocyanine salt formulations” (Case Western Reserve University, priority 2009, dated 2013):

Test: Photofading of phthalocyanines on irradiation with tungsten lamp light
Type: physicochemical
Experimental: Linolenate Ester of SiPc(OH)2, SiPc(OC(O)(CH2)6(CH2CH═CH)3 CH2CH3]2. A solution of the linolenate ester of SiPc(OH)2 in toluene (˜0.01 mM) in a capped quartz cuvette was irradiated at room temperature with light from a tungsten lamp (300 W) in a projector (Kodak […] III E, Kodak, Japan) with a lamp-to-cuvette separation of 30 cm. The UV-vis absorption of the solution at 684 nm was taken periodically and the percent ester remaining was calculated.
The compounds below Table 7 show phthalocyanines with (a) polyunsaturated ester ligands and (b) with polyunsaturated anions

Question: With “SiPc(OC(O)(CH2)6(CH2CH═CH)3CH2CH3]2 [linolenic ester]” as the substance, how does the “% left” value read?
Answer: 88 68 59%
